Assay results from article PMC12636382, “Human and zebrafish mineralocorticoid receptors reporter cell assays to assess the activity of chemicals” (iScience, 2025).
Values joined by “and” are separate entries in the source; they are usually repeats but may differ in a detail not shown here. Identical values can stand only once.

Sequences of proteins named here, by UniProt entry; tags and fusion partners are left off.
UniProt A6YIH7, entry or part of it: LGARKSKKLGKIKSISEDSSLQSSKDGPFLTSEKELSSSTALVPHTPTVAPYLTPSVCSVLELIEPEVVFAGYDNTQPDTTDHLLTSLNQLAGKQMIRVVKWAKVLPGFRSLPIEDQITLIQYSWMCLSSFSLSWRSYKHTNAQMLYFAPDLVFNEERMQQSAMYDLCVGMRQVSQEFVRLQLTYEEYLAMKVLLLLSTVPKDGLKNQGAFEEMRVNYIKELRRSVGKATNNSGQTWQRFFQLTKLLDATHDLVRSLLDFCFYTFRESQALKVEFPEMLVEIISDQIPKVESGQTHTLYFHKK

Biological target: zebrafish MR (zfMR) (Danio rerio, UniProt A6YIH7)
Assay: UG5LN-GAL4-zfMR luciferase reporter cell assay (agonism and antagonism tests)
Format: cell-based
Description: The U2OS cells used to establish the MR reporter cell lines were obtained from and verified by ECACC (UK Health Security Agency, Porton Down, Salisbury, UK). The strategy used has been described previously to establish other NR-based cell lines.[42] First, the different pSG5-GAL4(DBD)-MRs (LBD) and (GAL4RE)5βGlob-Luc-SVNeo plasmids were tested by transient transfections in U2OS. Then, the UG5LN-GAL4-hMR and UG5LN-GAL4-zfMR clonal cells were generated in two steps. The first step was to establish clonal UG5LN cells by a stable transfection of U2OS cells, considered as steroid receptor negative, with the plasmid (GAL4RE)5βGlob-Luc-SVNeo. […]
To perform the reporter gene assay, cells were seeded in 96-wells white transparent culture plates (Greiner bio-one 655098CellStar; Dutscher, Brumath, France) at a density of 60,000 cells per well in 150 μL of culture medium and incubated at 37°C and 5% CO2 for 24 h. […] The luminescence signal was monitored in intact live cells for 2 s per well using a MicroBeta Wallac luminometer (PerkinElmer, Courtaboeuf, France). […]
The quantification and statistical analysis are integral parts of the software used (GraphPad Prism 10, GraphPad Software Inc). […]

## C[C@@H]1C[C@H]2[C@@H]3CCC4=CC(=O)C=C[C@]4(C)[C@@]3(F)[C@@H](O)C[C@]2(C)[C@@]1(O)C(=O)CO [dexamethasone]
  EC50: 2.7 nM and 2.69 nM
